For series [1] the following is noted: BAY-1895344 three times a week starting with 40 mg/kg; dose gradually reduced to 20 mg/kg.
Series [2] deals with Colo-205 (colorectal cancer) xenograft model. As to the kind of experiment: Example 2 in vivo synergy study, dosing schedule 2, Colo-205 xenograft. The conditions noted are these: FPI-1434 50 nCi, BAY-1895344 three times a week, 40 mg/kg gradually reduced to 20 mg/kg, first dose 24 hours after FPI-1434, up to 28 days.
The test system of series [3] is A549 (NSCLC) xenograft model. As to the kind of experiment: Example 1 in vivo synergy study, dosing schedule 1, A549 xenograft. To be noted: [225Ac]-FPI-1434 200 nCi, BAY-1895344 20 mg/kg i.p. 2 days on, 5 days off for 28 days, first dose 24 hours after FPI-1434, up to 28 days.
The subject of series [4] is Colo-205 (colorectal cancer) xenograft model. As to the kind of experiment: Example 1 in vivo synergy study, dosing schedule 1, Colo-205 xenograft. The conditions noted are these: [225Ac]-FPI-1434 50 nCi, BAY-1895344 20 mg/kg i.p. 2 days on, 5 days off for 28 days, first dose 24 hours after FPI-1434, up to 28 days.

Consider `C[C@@H]1COCCN1c1cc(-c2ccnn2C)c2ccnc(-c3ccn[nH]3)c2n1` [BAY-1895344], for which the “Adverse observation in animals (somnolence)” value in series [1] is “transient animal somnolence at the higher doses”. Further, the Relative tumor volume entry is on record as “some reduction in tumor volume over time” in series [2], “did not demonstrate any reduction in reduction in tumor volume over time relative to Vehicle controls” in series [3] and “did not demonstrate any reduction in reduction in tumor volume over time relative to Vehicle controls” in series [4].

(Values after patent US20210290788A1, “RADIOIMMUNOCONJUGATES AND DNA DAMAGE AND REPAIR INHIBITOR COMBINATION THERAPY” (Fusion Pharmaceuticals Inc., priority 2018, published 2021).)
